Measured values: ChEMBL document CHEMBL5528055, “Discovery and Identification of Novel 5-Hydroxy-4H-benzo[1,4]oxazin-3-one Derivatives as Potent β2-Adrenoceptor Agonists through Structure-Based Design, Synthesis, and Biological Evaluation” (J Med Chem, 2024)

Sequences of proteins named here, by UniProt entry; tags and fusion partners are left off.
UniProt P08588, whole entry: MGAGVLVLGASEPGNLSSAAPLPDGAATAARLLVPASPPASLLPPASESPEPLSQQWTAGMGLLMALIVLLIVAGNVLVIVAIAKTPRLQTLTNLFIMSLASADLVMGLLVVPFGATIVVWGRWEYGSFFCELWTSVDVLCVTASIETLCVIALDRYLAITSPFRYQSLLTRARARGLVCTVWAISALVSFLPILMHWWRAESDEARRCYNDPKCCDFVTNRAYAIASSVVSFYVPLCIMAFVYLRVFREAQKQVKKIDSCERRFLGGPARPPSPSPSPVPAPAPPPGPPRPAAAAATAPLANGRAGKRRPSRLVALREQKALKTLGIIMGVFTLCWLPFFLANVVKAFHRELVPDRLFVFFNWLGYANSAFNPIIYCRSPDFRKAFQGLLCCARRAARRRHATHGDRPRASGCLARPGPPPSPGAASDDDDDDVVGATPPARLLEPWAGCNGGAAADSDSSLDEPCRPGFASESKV

Target: Beta-1 adrenergic receptor (Homo sapiens, UniProt P08588)

O=C1COc2c(C(O)CNCCCc3cccc(F)c3)ccc(O)c2N1 (stereo unspecified)
EC50: 0.151 nM
